Literature values as cited in patent US20050238739A1 (priority 2004, published 2005).

Conditions: after oral intake

Substance: calcium carbonate
- intestinal absorption efficiency: up to 68%
